These results are taken from ChEMBL document CHEMBL1129269, “1-aryl-4-[(1-tetralinyl)alkyl]piperazines: alkylamido and alkylamino derivatives. Synthesis, 5-HT1A receptor affinity, and selectivity. 3” (J Med Chem, 1996).

By UniProt entry, the sequences of proteins in these tests, tags left out.
UniProt P19327, whole entry: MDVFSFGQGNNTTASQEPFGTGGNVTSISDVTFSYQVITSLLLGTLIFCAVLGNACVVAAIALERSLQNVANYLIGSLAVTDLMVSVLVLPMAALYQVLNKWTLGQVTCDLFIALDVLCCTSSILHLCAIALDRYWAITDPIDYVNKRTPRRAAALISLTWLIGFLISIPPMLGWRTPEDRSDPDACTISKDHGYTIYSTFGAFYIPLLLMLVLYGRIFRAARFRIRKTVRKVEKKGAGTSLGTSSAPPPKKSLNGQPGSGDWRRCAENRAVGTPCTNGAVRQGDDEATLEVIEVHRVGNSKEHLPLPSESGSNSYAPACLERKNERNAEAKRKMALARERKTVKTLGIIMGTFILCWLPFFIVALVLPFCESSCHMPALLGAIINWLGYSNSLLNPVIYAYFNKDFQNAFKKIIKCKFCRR

This experiment deals with 5-hydroxytryptamine receptor 1A (Rattus norvegicus, UniProt P19327). Briefly: Binding affinity against 5-hydroxytryptamine 1A receptor in rat hippocampus membranes using [3H]8-OH-DPAT as radioligand. It counts as cell membranes, Membrane.

For `COc1ccccc1N1CCN(CCC(=O)NC2CCCc3c(OC)cccc32)CC1` (stereo unspecified), the IC50 was found to be 38 nM.
